# Reported vapor pressure values for industrial, environmental and drug-like chemicals

Data: OPERA 2.9 data sets, kmansouri/OPERA on GitHub.

Vapor pressure is log10 of mmHg; the set covers 15 to 30 °C, mostly 20 to 25 °C. "–" marks a cell with nothing listed here. "via" names the databases from which the curators took the value.

structure (SMILES)	name	vapor pressure (log10 mmHg)	via
O=C1COCCN1c1ccc([N+](=O)[O-])cc1	4-(4-nitrophenyl)morpholin-3-one	-6.091	eChemPortal
C[C@@H]1[C@@H](CN)C[C@H]2C[C@@H]1C2(C)C	–	-1.101	eChemPortal
Cc1ccc2c(c1)[C@H](Nc1nc(N)nc(C(C)F)n1)[C@@H](C)C2 (stereo not given in full)	Indaziflam	-9.726	OCHEM
CO[Si](C)(C)CCCCl	(3-Chloropropyl)methoxydimethylsilane	-0.011	eChemPortal
C/C=C/C(=O)C1=C(C)C=CCC1(C)C	–	-1.648	eChemPortal
CC1OC1C1CCC2(C)OC2C1 (stereo not drawn)	Limonene diepoxide	-1.699	PubChem
CCOC(=O)OC1CCCCC1C(C)(C)C (stereo not drawn)	2-tert-Butylcyclohexyl ethyl carbonate	-1.782	eChemPortal
C=CC(C)(O)CC/C=C(\C)CC (stereo partly drawn)	Ethyl linalool	-0.87	eChemPortal
O=C(O)c1ccc(C(=O)O)o1	2,5-Furandicarboxylic acid	-11.61	eChemPortal
O=Cc1ccc(B(O)O)cc1	4-Formylphenylboronic acid	-6.606	eChemPortal
C=C(C)CCC	2-Methyl-1-pentene	2.29	OCHEM
CCCCOC(=O)CCS	Butyl 3-mercaptopropionate	-0.306	eChemPortal
CCCCC(CC)COB(OCC(CC)CCCC)OCC(CC)CCCC (stereo not drawn)	Tris(2-ethylhexyl) borate	-5.409	eChemPortal
CNc1ccccc1C(=O)OC	Methyl N-methylanthranilate	-1.687	eChemPortal
C1CCC(COCC2CCCCC2)CC1	–	-2.011	eChemPortal
CC(C)[C@@H]1CC[C@@H](C)C[C@H]1OC(=O)[C@@H]1CCC(=O)N1	–	-5.375	eChemPortal
Nc1c(Cl)cc(C(F)(F)F)cc1Cl	4-Amino-3,5-dichlorobenzotrifluoride	-1.824	eChemPortal
C=C(F)C(=O)OC	methyl 2-fluoroacrylate	1.724	eChemPortal
CC1COc2c(N3CCN(C)CC3)c(F)cc3c(=O)c(C(=O)O)cn1c23 (stereo not drawn)	Ofloxacin	-4.81	OCHEM
CCO[Si](CC(C)CC(C)(C)C)(OCC)OCC (stereo not drawn)	Silane, triethoxy(2,4,4-trimethylpentyl)-	-1.259	eChemPortal
COc1ccc(C(OC)OC)cc1	p-(Dimethoxymethyl)anisole	-1.743	eChemPortal
CCCC1CCC(=O)CC1	4-Propylcyclohexanone	-0.754	eChemPortal
c1ccc(CCOC2CCCCC2)cc1	Benzene, [2-(cyclohexyloxy)ethyl]-	-2.393	eChemPortal
CO[C@]1(C)CC[C@@]23C[C@@H]1C(C)(C)[C@@H]2CC[C@H]3C (stereo in doubt)	–	-2.426	eChemPortal
CCc1c(C(=O)O)c(=O)cnn1-c1ccc(Cl)cc1	Clofencet	-7.062	OCHEM, PubChem
CC(C)N=C=NC(C)C	Diisopropylcarbodiimide	0.708	PubChem
CCCCOCc1ccc(O)c(OC)c1	Phenol, 4-(butoxymethyl)-2-methoxy-	-2.502	eChemPortal
CC(C=O)Cc1ccc(C(C)C)cc1 (stereo not drawn)	Cyclamen aldehyde	-2.648	OCHEM, eChemPortal
CCCCC1CCCC(=O)O1 (stereo not drawn)	2H-Pyran-2-one, 6-butyltetrahydro-	-2.381	eChemPortal
C=CCCCCCCCCCCCCCCCCCCCCCCCCCCCC	1-Triacontene	-7.152	OFMPub
Cc1ncc(C[n+]2csc(CCOP(=O)([O-])OP(=O)(O)O)c2C)c(N)n1	Thiamine pyrophosphate	-9.319	eChemPortal
C=CCCC(=O)Oc1ccccc1	Phenyl pent-4-enoate	-1.624	eChemPortal
CCCCCCCCCCCCCCCCOC(=O)c1cc(C(C)(C)C)c(O)c(C(C)(C)C)c1	Hexadecyl 3,5-di-tert-butyl-4-hydroxybenzoate	-4.358	eChemPortal
CC(=O)CCCCCl	6-Chlorohexan-2-one	0.008	eChemPortal
C/C=C/C(=O)OC(CC)C(C)C (stereo partly drawn)	2-Butenoic acid, 1-ethyl-2-methylpropyl ester, (2E)-	-0.096	eChemPortal
CC/C=C\CCOC(=O)C(C)C	(3Z)-Hex-3-en-1-yl 2-methylpropanoate	0.26	eChemPortal
O=C1NS(=O)(=O)c2ccccc21	Saccharin	-6.095	OCHEM, eChemPortal
C=CC(C)CCCC(C)(C)OC(C)=O (stereo not drawn)	2,6-Dimethyloct-7-en-2-yl acetate	-0.842	eChemPortal
CCCCCCCCCCCCC(CCCCCCCCCC)C(=O)O (stereo not drawn)	Tetradecanoic acid, 2-decyl-	-10.24	eChemPortal
CN1CCN(c2ncccc2CO)C(c2ccccc2)C1 (stereo not drawn)	2-(4-Methyl-2-phenyl-1-piperazinyl)-3-pyridinemethanol	-7.706	eChemPortal
CCCCOC(=O)CSCSCC(=O)OCCCC	Dibutyl methylenedithiodi(acetate)	-5.674	eChemPortal
Clc1ccccc1-c1c(Cl)c(Cl)c(Cl)c(Cl)c1Cl	2,2',3,4,5,6-Hexachlorobiphenyl	-4.595	OCHEM
CCCC(C)=NO	2-Pentanone oxime	0.205	eChemPortal
CC(O)COC(C)CO[C@@H]1C[C@H]2CC[C@]1(C)C2(C)C (stereo in doubt)	–	-4.932	eChemPortal
CCCCCCCCCC(C)/C=C(/C(C)=O)C(=O)OCC (stereo partly drawn)	–	-4.824	eChemPortal
CCCC[C@H]1CO[C@H](c2ccc(-c3ccc(-c4cc(F)c(F)c(F)c4)c(F)c3)cc2)OC1	–	-10.67	eChemPortal
COc1ccc(C(=O)[O-])cc1.[Na+]	Sodium anisate	-5.523	eChemPortal
COC(=O)c1c(Cl)nn(C)c1S(=O)(=O)NC(=O)Nc1nc(OC)cc(OC)n1	Halosulfuron-methyl	-6.58	OCHEM

The last 5 entries again:

| structure (SMILES) | name | vapor pressure (log10 mmHg) | via |
|---|---|---|---|
| CC(O)COC(C)CO[C@@H]1C[C@H]2CC[C@]1(C)C2(C)C (stereo in doubt) | – | -4.932 | eChemPortal |
| CCCCCCCCCC(C)/C=C(/C(C)=O)C(=O)OCC (stereo partly drawn) | – | -4.824 | eChemPortal |
| CCCC[C@H]1CO[C@H](c2ccc(-c3ccc(-c4cc(F)c(F)c(F)c4)c(F)c3)cc2)OC1 | – | -10.67 | eChemPortal |
| COc1ccc(C(=O)[O-])cc1.[Na+] | Sodium anisate | -5.523 | eChemPortal |
| COC(=O)c1c(Cl)nn(C)c1S(=O)(=O)NC(=O)Nc1nc(OC)cc(OC)n1 | Halosulfuron-methyl | -6.58 | OCHEM |

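The numbers are reported measurements, compiled and curated for the OPERA QSAR suite. A listed value is a point estimate from one report or more. How each value was measured is not recorded, so precision varies. Where a salt, mixture or single isomer is drawn, the source does not say that exactly this form was tested. Some upstream entries may be estimates or bounds without being marked so.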